Laboratory results reported in patent US11759520B1, “Theranostics for protein misfolding diseases” (UNM Rainforest Innovations, priority 2018, dated 2023).
pKd: −log10 of the molar value. Where two headings read alike, the source gives them in different places.

Chains of the proteins cited; added tags and fusions are not shown. Residues count along the entry.
UniProt P05067, 672-711 limits assumed: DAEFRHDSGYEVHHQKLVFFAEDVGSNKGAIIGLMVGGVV
UniProt P05067, 672-713 limits assumed: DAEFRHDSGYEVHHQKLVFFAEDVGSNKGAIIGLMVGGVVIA

Experiments:
Aβ40 fibrils [1] = target: T1, Aβ40 fibrils (Homo sapiens, UniProt P05067); experiment: Fluorescence sensing of Aβ40 fibrils over monomers (ADF, LOD); assay type: binding; conditions: 5 to 1 protein to sensor molar ratio
Procedure: FIGS. 5A and B show the fluorescence profiles of ThT (20 μM) and OPE (1 μM) mixed with Aβ40 fibrils (5 μM) incubated in Tris pH 8.0 (A) or PB pH 7.4 (B) for various numbers of days.
FIGS. 6A-6F provide the excitation and emission spectra of ThT, OPE, and OPE2+ alone and in the presence of Aβ40 monomers or Aβ40 fibrils incubated in the two different buffers. […] However, the small increase is noticeably less than the large fluorescent enhancement observed when the OPEs were mixed with Aβ40 fibrils.
Quantitative assessment of OPE sensor performance towards A1340 fibrils at a 5 to 1 protein to sensor molar ratio was analyzed by calculating an amyloid detector factor using the equation shown in FIG. 13, where F(dye-in-buffer), F(dye+fibrils) and F(dye+monomers) are the integrated emission intensities for sensor alone, sensor in the presence of fibrils, and sensor in the presence of monomers, respectively. Using this equation, positive ADF values indicate selective sensing of fibrils over monomers, while negative ADF values indicate selective sensing of monomers. ADF values close to zero indicate no selective sensing.

Aβ40 fibrils [2] = target: T1, Aβ40 fibrils; experiment: Dissociation constant (binding affinity) for Aβ40 fibrils
Aβ42 peptide = Aβ42 peptide (Homo sapiens, UniProt P05067); experiment: Fluorescence spectra with unincubated (oligomeric) and incubated (fibrillar) Aβ42 peptide; conditions: ThT 20 μM, OPE 1 μM, Aβ42 5 μM
Aβ40 fibrils [3] = target: T1, Aβ40 fibrils; experiment: Photo-oxidation of Aβ40 fibrils, DNPH dot blot carbonyl content; assay type: biochemical
Aβ40 monomers = Aβ40 monomers (Homo sapiens, UniProt P05067); experiment: Photo-oxidation of Aβ40 monomers (DNPH dot blot, RP-HPLC, MS, amino acid analysis); assay type: biochemical; conditions: exposed to light, RP-HPLC and MS
Procedure: To evaluate the potency of OPE to selectively photo-oxidize Aβ40 fibrils over the monomeric counterpart, the oxidation state of both Aβ40 fibrils and monomers were characterized and were compared to MB. The carbonyl content of the protein was monitored by DNPH dot blot, which increases as a result of histidine photooxidation.^20
DNPH dot blot was carried out on Aβ40 fibrils and monomers incubated in the dark or under irradiation between 0 to 6 hours (FIGS. 9A and 9B). […] In the presence of both photosensitizers, OPE1− and MB, Aβ40 fibrils are characterized by an increase in the carbonyl content during irradiation (FIG. 9B, columns 5 and 8). Slightly higher carbonyl content in Aβ fibrils at time 0 h in the presence of MB could be due to short light exposure during sample preparation causing MB to photosensitize the oxidation of Aβ fibrils.
To confirm this observation, Aβ40 monomers were analyzed by reverse phase HPLC (RP-HPLC), mass spectrometry (MS), and amino acid analysis (FIGS. 10A and B), before and after irradiation in the presence of OPE1− and MB.

Aβ40 fibrils [4] = target: T1, Aβ40 fibrils; experiment: Effect of oxidation on Aβ40 fibril morphology and secondary structure (TEM, CD); assay type: biochemical; conditions: irradiated with photosensitizer
Aβ40 fibrils [5] = target: T1, Aβ40 fibrils; experiment: Fluorescence sensing of Aβ40 fibrils over monomers (ADF, LOD); assay type: binding
[6] = Aβ40 fibrils produced in pH 7.4 PB
[7] = Aβ40 fibrils produced in pH 8.0 Tris

CCOC(=O)c1ccc(C#Cc2cc(OCCCS(=O)(=O)O)c(C#Cc3ccc(C(=O)OCC)cc3)cc2OCCCS(=O)(=O)O)cc1
ADF (Amyloid Detection Factor), Aβ40 in PB (Aβ40 fibrils [1]; [6]): 2.3 +/− 0.3
ADF (Amyloid Detection Factor), Aβ40 in Tris (Aβ40 fibrils [1]; [7]): 2.8 +/− 0.6
pKd (Aβ40 fibrils [2]; read-out: KD (Dissociation Constant), Aβ40 in PB, Aβ40 fibrils produced in pH 7.4 PB): 6.57
pKd (Aβ40 fibrils [2]; read-out: KD (Dissociation Constant), Aβ40 in Tris, Aβ40 fibrils produced in pH 8.0 Tris): 6.15
fluorescence increase with fibrillar (incubated) Aβ42 (Aβ42 peptide): large fluorescence increases
fluorescence increase with oligomeric (unincubated, prefibrillar) Aβ42 (Aβ42 peptide): small fluorescence increases
carbonyl content of Aβ40 fibrils incubated in the dark (Aβ40 fibrils [3]; dark, 0 to 6 hours): no change was observed
carbonyl content of Aβ40 fibrils during irradiation (Aβ40 fibrils [3]; irradiation 0 to 6 hours): increase in the carbonyl content
selectivity of photo-oxidation, Aβ40 fibrils vs monomers (Aβ40 monomers): selectively oxidized Aβ40 fibrils
Aβ40 fibril morphology after irradiation (TEM) (Aβ40 fibrils [4]): fibrils dissociated and broke into shorter structures
Aβ40 fibril secondary structure after irradiation (CD) (Aβ40 fibrils [4]): no change in the secondary is observed
LOD (Limit of Detection), Aβ40 in PB (Aβ40 fibrils [5]; [6]): 0.48 ± 0.02 µM
LOD (Limit of Detection), Aβ40 in Tris (Aβ40 fibrils [5]; [7]): 0.52 ± 0.04 µM
